One data set has as its system Lp(a). Nature of the data set: Lp(a) levels in LPA × ApoB100 transgenic mice. The settings on record: oral BID, five days.
The target of another data set is plasmin activity (Rattus norvegicus, UniProt Q01177). The data set is described as follows: Rat plasma plasmin (plasminogen) activity ex vivo after oral dosing. The data set is classed as in vivo. The settings on record: rats treated orally at pharmacological doses. On the procedure:
(§1) Male Sprague Dawley rats (Charles River, average body weight 310 g, aged eight to nine weeks old) were housed in cages with a standard light cycle (12-h light, 12-h dark), at room temperature (22 ± 4 °C), with a relative humidity of 30–70%. Rats were identified by numbers on the cage cards. After arrival, rats were fed on a normal diet (Harlan Teklad diet 2014) and randomized to treatment groups (n = 5 per group) by baseline plasma plasminogen concentration and activity using a BRAT. LSN3441732 and LY3473329 were administered QD orally at three dose levels (3.7, 12.3 and 37 mg kg^−1; 3.2, 10.5 and 31.6 mg kg^−1 per dose, respectively) or vehicle (10 ml kg^−1, 1% HEC, 0.25% Tween-80, Antifoam) for four days. Terminal blood was drawn under general anaesthesia 24 h after the day-4 oral dose. […] The mixture was added and the plate was sealed and placed in a prewarmed plate reader, shaken, and the absorbance read every 30 s for 2 h. The maximum slope for each curve was determined and the percentage inhibition was calculated relative to untreated controls. Plasminogen protein was measured using ELISA kits for rat (Abcam ab157740) according to the manufacturer’s instructions. Plasminogen activity (percentage) and mass (µg ml^−1) in rat were analysed by ANOVA in JMP 16.1.0. […]

The chains behind the UniProt entries cited, without tags or fusion partners. Residues count along the entry.
UniProt Q01177, 20-812 limits assumed: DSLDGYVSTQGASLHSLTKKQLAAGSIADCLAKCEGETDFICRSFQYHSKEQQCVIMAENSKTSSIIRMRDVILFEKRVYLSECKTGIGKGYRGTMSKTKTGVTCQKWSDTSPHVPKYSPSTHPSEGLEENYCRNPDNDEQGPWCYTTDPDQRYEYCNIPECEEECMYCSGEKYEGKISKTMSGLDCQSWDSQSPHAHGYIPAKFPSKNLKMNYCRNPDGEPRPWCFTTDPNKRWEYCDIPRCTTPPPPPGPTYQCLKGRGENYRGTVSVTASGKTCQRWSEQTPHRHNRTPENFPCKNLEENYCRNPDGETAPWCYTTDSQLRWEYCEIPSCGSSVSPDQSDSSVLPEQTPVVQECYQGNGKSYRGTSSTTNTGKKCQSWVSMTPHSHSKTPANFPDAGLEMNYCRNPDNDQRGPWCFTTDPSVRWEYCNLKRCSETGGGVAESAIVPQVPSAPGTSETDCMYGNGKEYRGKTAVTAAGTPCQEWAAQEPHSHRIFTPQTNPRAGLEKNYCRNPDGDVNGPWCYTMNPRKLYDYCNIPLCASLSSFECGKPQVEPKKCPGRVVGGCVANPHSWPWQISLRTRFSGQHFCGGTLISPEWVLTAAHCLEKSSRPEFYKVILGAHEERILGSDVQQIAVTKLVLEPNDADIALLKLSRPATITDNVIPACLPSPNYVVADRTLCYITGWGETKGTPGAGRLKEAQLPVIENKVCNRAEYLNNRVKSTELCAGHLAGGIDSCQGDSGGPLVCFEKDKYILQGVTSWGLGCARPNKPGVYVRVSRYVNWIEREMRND

The next data set deals with plasminogen (Rattus norvegicus, UniProt Q01177). The data set is described as follows: Rat plasma plasminogen concentration (ELISA) after oral dosing. It is filed as in vivo. The settings on record: rats. On the procedure: as §1
For orientation: In an ELISA, binding on a coated surface is turned into a signal by an enzyme label.

For `O=C(O)[C@@H](Cc1cccc(CN(Cc2cccc(C[C@H](C(=O)O)[C@H]3CCNC3)c2)Cc2cccc(C[C@H](C(=O)O)[C@H]3CCNC3)c2)c1)[C@H]1CCNC1` [LY3473329], the “ED50 for Lp(a) reduction” value in the data set with Lp(a) came out at 3 mg/kg. Further, the “plasma plasmin activity measured ex vivo” value on plasmin activity is “decreased plasma plasmin activity”. Moreover, the “plasma levels of plasminogen protein” value on plasminogen is given as “decreased in a dose-dependent manner”.

The values are drawn from publication PMC11111404, “Discovery of potent small-molecule inhibitors of lipoprotein(a) formation” (Nature, 2024).
